According to article PMC10999558, “Analyzing resistome in soil and Human gut: a study on the characterization and risk evaluation of antimicrobial peptide resistance” (Frontiers in Microbiology, 2024):

What was measured:
Assay type in all cases: cell-based, Escherichia coli
Conditions in all cases: MHB, 37°C, 24 h, triplicate
E. coli DH5α = experiment: MIC, broth microdilution, E. coli DH5α carrying pUC118 or resistance-conferring plasmids
Experimental: (§1) Escherichia coli DH5α, E. coli BL21(DE3), and E. coli JM109 were utilized in this study.
(§2) The MICs were determined using the broth microdilution method in 96-well microtiter plates ([Wiegand et al., 2008]). In brief, a 1:100 dilution of the mid-exponential phase bacterial culture (OD600 = 0.5), consisting of 5 μL (1 × 10^5 CFU/mL), was introduced into polypropylene 96-well plates. These plates contained a two-fold dilution series of AMP in a total volume of 100 μL MHB per well. The incubation of the plates occurred at 37°C in a humidity chamber. The MIC was identified as the lowest concentration that hindered visible bacterial growth after 24 h of incubation. Each experiment was conducted in triplicate.
(§3) Following validation, the colonies displaying resistance underwent additional testing via MIC assessments for the remaining four AMPs that were not employed during the selection process. This experimental procedure was carried out in triplicate.

E. coli BL21(DE3) = experiment: MIC, broth microdilution, retransformed E. coli BL21(DE3)
Experimental: as §1, §2
(§4) Before washing down the colonies, we randomly selected two clones from each plate containing distinct AMP. Colony PCRs were conducted using M13 primer pairs to validate the presence of inserts and determine their sizes. The selected colonies were then subjected to sequencing. The specific details are provided in Supplementary Table S2. Following that, plasmids were isolated using the Plasmid Midiprep Kit (Zomanbio, ZP103) following the manufacturer’s guidelines. After the plasmids were successfully reintroduced into E. coli JM109 and E. coli BL 21(DE3), the MICs of the transformed strains against the AMP used for selection were tested. This testing process was carried out in triplicate.
as §3

E. coli JM109 = experiment: MIC, broth microdilution, retransformed E. coli JM109
Experimental: as §1, §2, §4, §3

## Cathelicidin-DM [SA37]
E. coli DH5α; E. coli DH5α containing pUC118 plasmids
  MIC: 16 µg/mL
E. coli DH5α; colony pUC118-DH5α (control, no insert)
  MIC: 16 µg/mL
E. coli DH5α; colony pUC118-FCST1-DH5α (feces insert 1 selected against colistin)
  MIC: 16 µg/mL
E. coli DH5α; colony pUC118-FCST2-DH5α (feces insert 2 selected against colistin)
  MIC: 16 µg/mL
E. coli DH5α; colony pUC118-FGQ1-DH5α (feces insert 1 selected against melittin)
  MIC: 32 µg/mL
E. coli DH5α; colony pUC118-FGQ2-DH5α (feces insert 2 selected against melittin)
  MIC: 16 µg/mL
E. coli DH5α; colony pUC118-FIB1-DH5α (feces insert 1 selected against iseganan)
  MIC: 16 µg/mL
E. coli DH5α; colony pUC118-FIB2-DH5α (feces insert 2 selected against iseganan)
  MIC: 32 µg/mL
E. coli DH5α; colony pUC118-FPB1-DH5α (feces insert 1 selected against polymyxin B)
  MIC: 16 µg/mL
E. coli DH5α; colony pUC118-FPB2-DH5α (feces insert 2 selected against polymyxin B)
  MIC: 16 µg/mL
E. coli DH5α; colony pUC118-FSA1-DH5α (feces insert 1 selected against cathelicidin-DM)
  MIC: 32 µg/mL
E. coli DH5α; colony pUC118-FSA2-DH5α (feces insert 2 selected against cathelicidin-DM)
  MIC: 32 µg/mL
E. coli DH5α; colony pUC118-SCST1-DH5α (soil insert 1 selected against colistin)
  MIC: 16 µg/mL
E. coli DH5α; colony pUC118-SCST2-DH5α (soil insert 2 selected against colistin)
  MIC: 16 µg/mL
E. coli DH5α; colony pUC118-SGQ1-DH5α (soil insert 1 selected against melittin)
  MIC: 32 µg/mL
E. coli DH5α; colony pUC118-SGQ2-DH5α (soil insert 2 selected against melittin)
  MIC: 32 µg/mL
E. coli DH5α; colony pUC118-SIB1-DH5α (soil insert 1 selected against iseganan)
  MIC: 16 µg/mL
E. coli DH5α; colony pUC118-SIB2-DH5α (soil insert 2 selected against iseganan)
  MIC: 16 µg/mL
E. coli DH5α; colony pUC118-SPB1-DH5α (soil insert 1 selected against polymyxin B)
  MIC: 16 µg/mL
E. coli DH5α; colony pUC118-SPB2-DH5α (soil insert 2 selected against polymyxin B)
  MIC: 16 µg/mL
E. coli DH5α; colony pUC118-SSA1-DH5α (soil insert 1 selected against cathelicidin-DM)
  MIC: 32 µg/mL
E. coli DH5α; colony pUC118-SSA2-DH5α (soil insert 2 selected against cathelicidin-DM)
  MIC: 32 µg/mL
E. coli BL21(DE3); colony pUC118-BL21(DE3) (control, no insert)
  MIC: 16 µg/mL
E. coli BL21(DE3); colony pUC118-FCST1-BL21(DE3) (feces insert 1 selected against colistin)
  MIC: 16 µg/mL
E. coli BL21(DE3); colony pUC118-FCST2-BL21(DE3) (feces insert 2 selected against colistin)
  MIC: 16 µg/mL
E. coli BL21(DE3); colony pUC118-FGQ1-BL21(DE3) (feces insert 1 selected against melittin)
  MIC: 32 µg/mL
E. coli BL21(DE3); colony pUC118-FGQ2- BL21(DE3) (feces insert 2 selected against melittin)
  MIC: 16 µg/mL
E. coli BL21(DE3); colony pUC118-FIB1-BL21(DE3) (feces insert 1 selected against iseganan)
  MIC: 16 µg/mL
E. coli BL21(DE3); colony pUC118-FIB2-BL21(DE3) (feces insert 2 selected against iseganan)
  MIC: 32 µg/mL
E. coli BL21(DE3); colony pUC118-FPB1-BL21(DE3) (feces insert 1 selected against polymyxin B)
  MIC: 16 µg/mL
E. coli BL21(DE3); colony pUC118-FPB2-BL21(DE3) (feces insert 2 selected against polymyxin B)
  MIC: 16 µg/mL
E. coli BL21(DE3); colony pUC118-FSA1-BL21(DE3) (feces insert 1 selected against cathelicidin-DM)
  MIC: 32 µg/mL
E. coli BL21(DE3); colony pUC118-FSA2-BL21(DE3) (feces insert 2 selected against cathelicidin-DM)
  MIC: 32 µg/mL
E. coli BL21(DE3); colony pUC118-SCST1-BL21(DE3) (soil insert 1 selected against colistin)
  MIC: 16 µg/mL
E. coli BL21(DE3); colony pUC118-SCST2-BL21(DE3) (soil insert 2 selected against colistin)
  MIC: 16 µg/mL
E. coli BL21(DE3); colony pUC118-SGQ1-BL21(DE3) (soil insert 1 selected against melittin)
  MIC: 16 µg/mL
E. coli BL21(DE3); colony pUC118-SGQ2-BL21(DE3) (soil insert 2 selected against melittin)
  MIC: 32 µg/mL
E. coli BL21(DE3); colony pUC118-SIB1-BL21(DE3) (soil insert 1 selected against iseganan)
  MIC: 16 µg/mL
E. coli BL21(DE3); colony pUC118-SIB2-BL21(DE3) (soil insert 2 selected against iseganan)
  MIC: 16 µg/mL
E. coli BL21(DE3); colony pUC118-SPB1-BL21(DE3) (soil insert 1 selected against polymyxin B)
  MIC: 16 µg/mL
E. coli BL21(DE3); colony pUC118-SPB2-BL21(DE3) (soil insert 2 selected against polymyxin B)
  MIC: 16 µg/mL
E. coli BL21(DE3); colony pUC118-SSA1-BL21(DE3) (soil insert 1 selected against cathelicidin-DM)
  MIC: 32 µg/mL
E. coli BL21(DE3); colony pUC118-SSA2-BL21(DE3) (soil insert 2 selected against cathelicidin-DM)
  MIC: 32 µg/mL
E. coli JM109; colony pUC118-FCST1-JM109 (feces insert 1 selected against colistin)
  MIC: 8 µg/mL
E. coli JM109; colony pUC118-FCST2-JM109 (feces insert 2 selected against colistin)
  MIC: 8 µg/mL
E. coli JM109; colony pUC118-FGQ1-JM109 (feces insert 1 selected against melittin)
  MIC: 16 µg/mL
E. coli JM109; colony pUC118-FGQ2-JM109 (feces insert 2 selected against melittin)
  MIC: 8 µg/mL
E. coli JM109; colony pUC118-FIB1-JM109 (feces insert 1 selected against iseganan)
  MIC: 8 µg/mL
E. coli JM109; colony pUC118-FIB2-JM109 (feces insert 2 selected against iseganan)
  MIC: 16 µg/mL
E. coli JM109; colony pUC118-FPB1-JM109 (feces insert 1 selected against polymyxin B)
  MIC: 8 µg/mL
E. coli JM109; colony pUC118-FPB2-JM109 (feces insert 2 selected against polymyxin B)
  MIC: 8 µg/mL
E. coli JM109; colony pUC118-FSA1-JM109 (feces insert 1 selected against cathelicidin-DM)
  MIC: 16 µg/mL
E. coli JM109; colony pUC118-FSA2-JM109 (feces insert 2 selected against cathelicidin-DM)
  MIC: 16 µg/mL
E. coli JM109; colony pUC118-JM109 (control, no insert)
  MIC: 8 µg/mL
E. coli JM109; colony pUC118-SCST1-JM109 (soil insert 1 selected against colistin)
  MIC: 8 µg/mL
E. coli JM109; colony pUC118-SCST2-JM109 (soil insert 2 selected against colistin)
  MIC: 8 µg/mL
E. coli JM109; colony pUC118-SGQ1-JM109 (soil insert 1 selected against melittin)
  MIC: 16 µg/mL
E. coli JM109; colony pUC118-SGQ2-JM109 (soil insert 2 selected against melittin)
  MIC: 16 µg/mL
E. coli JM109; colony pUC118-SIB1-JM109 (soil insert 1 selected against iseganan)
  MIC: 8 µg/mL
E. coli JM109; colony pUC118-SIB2-JM109 (soil insert 2 selected against iseganan)
  MIC: 8 µg/mL
E. coli JM109; colony pUC118-SPB1-JM109 (soil insert 1 selected against polymyxin B)
  MIC: 8 µg/mL
E. coli JM109; colony pUC118-SPB2-JM109 (soil insert 2 selected against polymyxin B)
  MIC: 8 µg/mL
E. coli JM109; colony pUC118-SSA1-JM109 (soil insert 1 selected against cathelicidin-DM)
  MIC: 16 µg/mL
E. coli JM109; colony pUC118-SSA2-JM109 (soil insert 2 selected against cathelicidin-DM)
  MIC: 16 µg/mL
